Test results published in patent publication US9238131B2, “Ocular iontophoresis device” (priority 2005, dated 2016).

Details: rabbit, in vivo

^3H-clonidine
Efficiency of iontophoresis without current (0 mA) compared with topic administration: about the same efficiency as the topic administration
Times more active substance in the ciliary body with iontophoresis 2 mA than with topical method: at least three
